Structures can show the parent of a compound that is named as a salt.
How the values were obtained:
5-HT1d receptor [1] = target: T1, 5-HT1d receptor (Rattus norvegicus, UniProt P28565); assay: 5-HT1d receptor binding assay (Cerep)
T1 construct: purchased Cerep

By UniProt entry, the sequences of proteins in these tests, tags left out. Where a name states a change or a piece, a line headed by the entry shows the natural chain unless it says otherwise.
UniProt P28565: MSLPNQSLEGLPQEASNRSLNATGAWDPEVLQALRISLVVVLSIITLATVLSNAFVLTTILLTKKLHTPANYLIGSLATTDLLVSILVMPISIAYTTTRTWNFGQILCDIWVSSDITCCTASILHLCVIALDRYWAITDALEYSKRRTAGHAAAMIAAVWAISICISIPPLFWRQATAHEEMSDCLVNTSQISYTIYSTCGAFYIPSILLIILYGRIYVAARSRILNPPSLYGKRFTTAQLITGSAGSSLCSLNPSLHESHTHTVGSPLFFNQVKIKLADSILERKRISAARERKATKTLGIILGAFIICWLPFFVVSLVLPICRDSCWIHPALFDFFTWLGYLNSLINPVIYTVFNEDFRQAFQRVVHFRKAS
UniProt P34969, whole entry: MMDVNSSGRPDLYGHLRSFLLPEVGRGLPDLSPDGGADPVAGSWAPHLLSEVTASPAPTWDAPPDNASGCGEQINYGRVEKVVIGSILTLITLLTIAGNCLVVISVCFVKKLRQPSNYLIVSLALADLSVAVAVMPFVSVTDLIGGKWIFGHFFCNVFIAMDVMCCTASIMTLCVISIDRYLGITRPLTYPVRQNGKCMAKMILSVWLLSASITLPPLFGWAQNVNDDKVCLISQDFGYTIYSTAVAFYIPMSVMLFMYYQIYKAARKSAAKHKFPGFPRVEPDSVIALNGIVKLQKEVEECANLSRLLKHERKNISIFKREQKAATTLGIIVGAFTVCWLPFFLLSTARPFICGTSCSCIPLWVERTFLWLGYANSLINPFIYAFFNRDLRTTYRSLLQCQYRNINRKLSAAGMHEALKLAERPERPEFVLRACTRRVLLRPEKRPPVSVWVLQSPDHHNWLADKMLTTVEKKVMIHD

5-HT7 receptor [2] = target: T2, 5-HT7 receptor (Homo sapiens, UniProt P34969); assay: 5-HT7 compound efficacy (agonist EC50), cyclic-AMP; type: cell-based
T2 construct: purchased Cerep

5-HT7 receptor [3] = target: T2, 5-HT7 receptor; assay: 5-HT7 receptor binding assay (Cerep)
5-HT1d receptor [4] = target: T1, 5-HT1d receptor; assay: 5-HT1d compound efficacy (agonist EC50), impedance; type: cell-based

For `CCCN(CCC)[C@@H]1CCc2cccc(O)c2C1` [R-(+)-DPAT, R(+)-8-Hydroxy-2-(dipropylamino)tetralin hydrobromide], the Ki (5-HT1d receptor [1]) was 0.067 µM, the EC50 (5-HT7 receptor [2]) was 1.2 µM and the Ki (5-HT7 receptor [3]) was 0.0051 µM. The EC50 (5-HT1d receptor [4]) was 0.014 µM.
Work on `CCCN(CCC)[C@H]1CCc2cccc(O)c2C1` [S-(−)-DPAT, S(−)-8-Hydroxy-2-(dipropylamino)tetralin hydrobromide] yielded a Ki (5-HT1d receptor [1]) of 0.86 µM, an EC50 (5-HT7 receptor [2]) of 26 µM and a Ki (5-HT7 receptor [3]) of 0.029 µM. For the same molecule, the EC50 (5-HT1d receptor [4]) was 0.42 µM.

— US8637263B1, “Assay for determination of compounds having anti-emetic activity” (Epiomed Therapeutics, Inc., priority 2010, dated 2014)
